From patent US9776979B2, “EBI2 modulators” (Sanford-Burnham Medical Research Institute, priority 2013, dated 2017)

Chains of the proteins cited; added tags and fusions are not shown.
UniProt P32249, whole entry: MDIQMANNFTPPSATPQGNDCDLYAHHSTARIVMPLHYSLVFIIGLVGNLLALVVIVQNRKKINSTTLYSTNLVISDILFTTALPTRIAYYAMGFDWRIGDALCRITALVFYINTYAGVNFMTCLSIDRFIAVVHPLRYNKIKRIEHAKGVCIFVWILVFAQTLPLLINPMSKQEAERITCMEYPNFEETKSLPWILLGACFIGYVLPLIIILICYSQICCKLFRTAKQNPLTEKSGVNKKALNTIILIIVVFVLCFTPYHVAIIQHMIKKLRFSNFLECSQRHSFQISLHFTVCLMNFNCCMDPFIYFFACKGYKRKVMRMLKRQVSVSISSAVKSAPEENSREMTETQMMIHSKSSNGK

Target: EBI2 (Homo sapiens, UniProt P32249)
Experiment: Cell-based luminescent assay (EBI2 modulation)
Details: read-out: IC50 nM; cell-based luminescence; 7a,25-OHC final assay concentration 80 nM; 60 minutes incubation

O=C(/C=C/c1ccc(Br)cc1)N1CCC(Nc2ccc(Cl)cc2)CC1
IC50: < 100 nM
